Molecular target: α-synuclein aggregates (Homo sapiens (Human), UniProt P37840)
Assay: ReNcell VM α-synuclein aggregation assay
Settings: read-out: Activity (DC50, concentration at which 50% of α-synuclein aggregates has been degraded); ReNcell VM cells
Procedure: The ReNcell VM α-synuclein aggregation assay was conducted at Charles River Laboratories (CRL). ReNcell VM is an immortalized human neural progenitor cell line derived from the ventral mesencephalon region of the brain. ReNcell VM cells were selected as in vitro cellular model for the α-synuclein aggregation assay, based on their growth features, differentiation potential into terminally differentiated neurons and amenability to adenoviral transduction. Aggregated human wild type α-synuclein was overexpressed through adenoviral delivery. Aggregated α-synuclein was detected with the aggregate-selective anti-α-synuclein antibody MJFR14 using immunocytochemistry; total α-synuclein levels were detected with Syn205 (α/β-synuclein-specific antibody).
The ReNcell VM α-synuclein aggregation assay was applied for compound screening to identify compounds capable of degrading α-synuclein aggregates. […] Immunoreactivity toward aggregated (MJFR14) and total α-synuclein (Syn205) was quantified using high content-based segmentation of immunoactive areas in immunocytochemical images (performed with the IN Cell 2200 (GE Healthcare)), followed by quantification of immunofluorescent intensity (performed by CRL's developed algorithm using IN Cell Developer Toolbox software).
Percentage effect (PE): Inhibition in comparison to BLANK (0.1% DMSO).
PE=100−(signal of compound/average signal BLANK)×100 […]

DC50: 10 to 900 nM
Compound: CN(C)c1ccc(-c2ccc(-c3nc4ccc(NCCNC(=O)COc5ccc6c(c5)CN(C5CCC(=O)NC5=O)C6=O)cc4s3)c(C(F)(F)F)c2)cn1 (stereo not shown)

From patent US12377152B2, “Compounds for degrading alpha-synuclein aggregates and uses thereof” (APRINOIA THERAPEUTICS LIMITED, priority 2019, dated 2025)
